Compound activity: PubChem BioAssay, National Center for Advancing Translational Sciences (NCATS)
miR-21 reporter: miR-21 reporter, rising signal. HeLa miR-21 FLuc reporter, luciferase, 48 h. Potency, µM (highest dose often 38.3 µM). 340,000 tested, under 10 active. AID 2288; active = well fitted rising curve with a large enough effect; inconclusive = small, poorly fitted or top-dose-only effect; inactive = no such curve, though single readings can be large or run the other way;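 further: miR-21 action dims this reporter so a rising signal means less miR-21 action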
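HeLa miR-21-FLuc reporter line, endogenous miR-21; 2000 cells/well in DMEM/10% FBS; compound titration up to ~40uM final, 48 h, 37 degree Celsius; luciferase detection reagent, 15 min lysis, CCD luminescence.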
ClpP mod: qHTS Assay for Activators of ClpP | Potency, µM (highest dose often 57.5 µM) | 340,000 compounds, 1.9% hits | purified B. subtilis ClpP, FRET peptide cleavage, 20 min | ATP-dependent Clp protease proteolytic subunit (Bacillus subtilis (strain 168)), P80244; active means well fitted falling curve with a large enough effect; inconclusive means small, poorly fitted or top-dose-only effect; inactive means no such curve, though single readings can be large or run the other way; further: the source files actives as falling curves though it sought activators and does not explain the sign; nearly all actives have a fitted effect of over 65% in size
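FRET quenching reversal measured ClpP activation: 10 microg/mL B. subtilis ClpP at pH 8 with the FRET-FV decapeptide, read at 430 nm after 320 nm excitation. The 20-min minus 0-min signal was scaled between DMSO/no-enzyme wells and ADEP (5.8 microM final).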
A549 viability: counter-screen for Nrf2 inhibitors: cytotoxicity in A549 cells. A549 ARE-Fluc cells, CellTiter-Fluor viability, 18-24 h. Potency, µM (highest dose often 46 µM), usual class: inhibitors. 390,000 compounds, 0.16% hits. AID 504648
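Cytotoxicity counterscreen: CellTiter-Fluor fluorescence was measured in A549 ARE_Fluc cells after 18-24 h of compound exposure in a concentration series. The subsequent BugLite luminescent read reports ARE-luciferase activity.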
Nrf2 activator: activators of Nrf2 (ARE) signaling | Potency, µM (series often up to 46.1 µM), most hits filed as activators | AREc32 ARE-luciferase reporter (MCF7-derived line), luminescence, 24 h | 410,000 compounds, 0.31% hits; further: nearly all actives have a fitted effect of over 65% in size
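AREc32 cells carrying an ARE-driven firefly luciferase reporter were seeded at 1000 cells/well in OPTI-MEM with 5% FBS, then exposed to compound for 24 hr at 37 deg C. Luminescence was read with Steady-Glo after 30 min at RT.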
IL2 activator: activates IL-2 in a cell-based reporter assay; IL-2 activation reporter assay, cell-based qHTS; stimulated with anti-CD3/CD4/CD28 beads; in transgenic mouse T cells; activation, % (series mostly up to about 46 µM); 360,000 compounds, 0.065% hits; AID 652025; in the data active means activation above about 50%; inconclusive means mostly about 30% to 49%
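First, unstimulated transgenic mouse T cells were exposed to compound for 60 min. Next, anti-CD3/anti-CD4-coated beads with anti-CD28 were added. Finally, after 18 h at 37 degrees C, EGFP and DsRed were imaged.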
Nrf2 block: inhibitors of Nrf2 signaling | A549 ARE-Fluc reporter, luciferase luminescence, 18-24 h | Potency, µM (doses to about 46 µM), most hits filed as inhibitors | 360,000 compounds, 2.1% hits | AID 504444; further: nearly all actives have a fitted effect of over 60% in size
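Reporter: ARE-Fluc in A549. Exposure: 18-24 h, 37 °C, 5% CO2, 5% FBS OPTI-MEM. Readouts: fluorescent cytotoxicity (CellTiter-Fluor), then luminescent Nrf2 signal after BugLite.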
A number is an active result; 0 = inactive; ? = inconclusive; - = no result. Sampled rows, rich in hits. Any-hit rate of the full collection: about 3.7%. Unless noted, the call rests on the fitted dose curve; in most records, active means well fitted curve in the direction sought with a large enough effect; inconclusive means small, poorly fitted or top-dose-only effect, or another doubt; inactive means no such curve, though single readings can be large; an effect the other way counts as inactive or inconclusive.

By UniProt entry, the sequences of proteins in these tests, tags left out.
ATP-dependent Clp protease proteolytic subunit (Bacillus subtilis (strain 168)), P80244, UniProt P80244, whole entry, looked up: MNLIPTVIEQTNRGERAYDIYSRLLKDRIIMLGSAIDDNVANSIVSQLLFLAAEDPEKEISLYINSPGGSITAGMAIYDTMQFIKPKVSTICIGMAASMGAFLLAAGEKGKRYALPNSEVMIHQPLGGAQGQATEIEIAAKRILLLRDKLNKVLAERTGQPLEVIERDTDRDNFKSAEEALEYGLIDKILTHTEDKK

SMILES	miR-21 reporter	ClpP mod	A549 viability	Nrf2 activator	IL2 activator	Nrf2 block
Cc1ccc(-n2ncc3c(NC(C)c4ccccc4)ncnc32)cc1 (centres undefined)	0	0	0	0	-	-
CCC(CO)Nc1ncnc2c1cnn2-c1ccc(C)cc1 (centres undefined)	0	28µM	0	0	-	-
Cc1nc(SCc2ccccc2)c2ccsc2n1	0	-	0	?	0	0
Cc1c(CCO)sc[n+]1CC(=O)c1ccccc1	-	0	-	-	-	-
Cc1cccc(C(=O)Nc2cccc(OCc3cc(=O)n4c(C)csc4n3)c2)c1	0	0	0	0	-	?
c1ccc2sc(Sc3ncnc4sccc34)nc2c1	0	-	0	8.9µM	0	?
O=C(Nc1ccncc1)c1cnn2c1NC(=C1CC1)C=C2C(F)F	-	0	-	-	-	-
CCOc1ccc(/C=C/[N+](=O)[O-])c2ccccc12	?	0	?	0	0	26µM
CCOC(=O)COc1ccc2ccccc2c1/C=C/[N+](=O)[O-]	?	0	?	?	0	?
O=C1CN(c2nc(-c3cccnc3)nc3sc4c(c23)CCCC4)CCN1	0	0	0	0	0	12µM
Cc1ccc(C)c(Cn2c(=O)cc(C)c3c(C)nn(-c4cccc(F)c4)c32)c1	0	0	0	0	-	0
Cc1c(C)n(CCc2ccccc2)c2ncnc(NN)c12	0	0	0	0	0	0
Cc1c(C)n(Cc2ccccc2)c2ncnc(NN)c12	0	0	0	0	0	26µM
O=C(NCCSc1ccccc1)c1ccc(Br)cc1	0	0	?	0	0	?
CN(C)S(=O)(=O)c1ccc(C(=O)NCCSc2ccc(Br)cc2)cc1	0	0	?	0	0	21µM
Cc1ccccc1CNC(=O)C(C)n1nc(C)n2c(cc3occc32)c1=O (centres undefined)	0	0	0	0	-	0
Cc1cccnc1NC(=O)CNC(=O)c1cccs1	-	0	0	0	0	0
Cc1cccnc1NC(=S)NC(=O)c1cccs1	0	0	0	10µM	0	?
Cc1ccc(NS(=O)(=O)c2ccc(NC(=O)CN(c3cc([N+](=O)[O-])ccc3C)S(C)(=O)=O)cc2)c(C)c1	?	0	?	0	0	9.2µM
Cc1ccccc1NC(=O)c1ccc2nc(Cc3ccccc3)oc2c1	0	0	0	0	-	-
COCCOc1ccc(C(F)(F)F)cc1NC(=O)c1ccccc1F	0	25µM	0	0	0	0
COc1cc2c(cc1NC(=O)c1ccccc1F)CCCC2	0	0	0	3.2µM	0	?
Cc1ccc(C)c(CN2C(=O)c3ccccc3S(=O)(=O)c3ccc(C(=O)NCc4ccccc4)cc32)c1	0	0	0	0	-	0
CN1c2ccccc2C(C)(C)C12C=Cc1cc(O)ccc1O2 (centres undefined)	0	0	?	0	0	21µM
CC1(C)C=Cc2c(ccc3c2OC[C@H](c2ccc(O)cc2O)C3)O1	-	0	0	0	0	0
SMILES	miR-21 reporter	ClpP mod	A549 viability	Nrf2 activator	IL2 activator	Nrf2 block
Cc1ccc(N(C(=O)c2cc3ccccc3oc2=O)C2C=CS(=O)(=O)C2)cc1 (centres undefined)	0	0	0	0	0	0
Cc1cc(C)cc(N(C(=O)c2cc3ccccc3oc2=O)C2C=CS(=O)(=O)C2)c1 (centres undefined)	0	0	0	14µM	0	0
COc1ccc2[nH]c(=O)c(CN(c3ccccc3)S(=O)(=O)c3ccccc3)cc2c1	0	0	0	0	0	0
Cc1cccc(N(Cc2cc3ccc(C)cc3[nH]c2=O)S(=O)(=O)c2ccccc2)c1	0	25µM	0	0	0	0
Cc1ccc2cc(CN(c3ccccc3)S(=O)(=O)c3ccccc3)c(=O)[nH]c2c1	0	-	0	0	0	0
Cc1cccc(N(Cc2cc3ccccc3[nH]c2=O)S(=O)(=O)c2ccccc2)c1	0	32µM	0	0	0	0
Cc1ccc(N(Cc2cc3cc(C)ccc3[nH]c2=O)S(=O)(=O)c2ccccc2)cc1	0	28µM	0	0	0	0
